How the values were obtained:
[1] = tested on: infarcted myocardial tissue; assay: Infarction tests: accumulation in infarcted myocardial tissue; type: in vivo, rat; conditions: 60 min
Experimental: The technetium-99m-stannous-glucoheptonate agent of Example 1, supra is compared with a technetium-99m-stannous-tetracycline agent, see Holman et al, supra, for effectiveness in preferentially accumulating in infarcted, rather than normal, myocardial tissue. In each case a myocardial infarct is produced in adult rats by surgery. In Example 9, doses of about 3-5 mCi each of the glucoheptonate and tetracycline agents respectively are injected three hours after infarct was induced. The animals are sacrificed one hour after injection and the heart removed. The infarcted tissue, which is visibly distinguishable from normal myocardial tissue, was excised, weighed and counted. The normal myocardial tissue was also weighed and its activity counted and the results are reported as the ratio of the activity per gram of the infarcted tissue to the activity per gram of the normal tissue (A), and the ratio of the activity per gram of the infarcted tissue to activity per gram in the blood (B). Example 10 reports similar results, the difference being that in that example the radionuclides were injected into the live rats eighteen hours after the infarct was induced, rather than three hours.

[2] = prior art; cited from earlier work

## technetium-99m-stannous-tetracycline [Tetracycline complex, reference compound]
[1]; Example 9: rat, injected three hours after infarct, sacrificed one hour after injection
  ratio B: activity per gram of infarcted tissue to activity per gram in the blood: 2.5
[1]; Example 10: rat, injected eighteen hours after infarct
  ratio B: activity per gram of infarcted tissue to activity per gram in the blood: 2.0
[2]
  accumulation, retention or elimination of prior agents (in words): Neighboring organ uptake was also a problem

Reference: patent publication US4027005A, “Diagnostic agents” (New England Nuclear Corporation, priority 1974, dated 1977)
